{"sequences": {"note": "Sequences of proteins named here, by UniProt entry; tags and fusion partners are left off. Residues count along the entry.", "UniProt A0A8I3MKE6, 1-646": "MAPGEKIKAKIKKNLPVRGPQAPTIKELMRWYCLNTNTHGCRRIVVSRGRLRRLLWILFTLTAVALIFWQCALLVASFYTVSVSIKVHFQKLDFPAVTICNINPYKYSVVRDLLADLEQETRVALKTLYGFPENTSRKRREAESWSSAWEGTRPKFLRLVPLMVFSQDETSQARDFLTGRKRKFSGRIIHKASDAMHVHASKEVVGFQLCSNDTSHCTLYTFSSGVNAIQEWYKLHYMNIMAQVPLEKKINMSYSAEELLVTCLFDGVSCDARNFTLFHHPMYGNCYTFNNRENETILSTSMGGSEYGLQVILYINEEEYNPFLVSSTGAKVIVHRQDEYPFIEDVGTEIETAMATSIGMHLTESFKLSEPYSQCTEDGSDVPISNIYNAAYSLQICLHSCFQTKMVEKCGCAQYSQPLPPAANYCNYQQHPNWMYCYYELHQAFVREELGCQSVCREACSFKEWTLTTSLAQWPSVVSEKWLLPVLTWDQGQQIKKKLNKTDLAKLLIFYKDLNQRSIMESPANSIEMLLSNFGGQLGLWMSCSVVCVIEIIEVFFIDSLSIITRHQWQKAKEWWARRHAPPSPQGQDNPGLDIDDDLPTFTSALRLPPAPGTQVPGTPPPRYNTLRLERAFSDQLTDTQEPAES", "UniProt A0A8I3Q679, 1-649": "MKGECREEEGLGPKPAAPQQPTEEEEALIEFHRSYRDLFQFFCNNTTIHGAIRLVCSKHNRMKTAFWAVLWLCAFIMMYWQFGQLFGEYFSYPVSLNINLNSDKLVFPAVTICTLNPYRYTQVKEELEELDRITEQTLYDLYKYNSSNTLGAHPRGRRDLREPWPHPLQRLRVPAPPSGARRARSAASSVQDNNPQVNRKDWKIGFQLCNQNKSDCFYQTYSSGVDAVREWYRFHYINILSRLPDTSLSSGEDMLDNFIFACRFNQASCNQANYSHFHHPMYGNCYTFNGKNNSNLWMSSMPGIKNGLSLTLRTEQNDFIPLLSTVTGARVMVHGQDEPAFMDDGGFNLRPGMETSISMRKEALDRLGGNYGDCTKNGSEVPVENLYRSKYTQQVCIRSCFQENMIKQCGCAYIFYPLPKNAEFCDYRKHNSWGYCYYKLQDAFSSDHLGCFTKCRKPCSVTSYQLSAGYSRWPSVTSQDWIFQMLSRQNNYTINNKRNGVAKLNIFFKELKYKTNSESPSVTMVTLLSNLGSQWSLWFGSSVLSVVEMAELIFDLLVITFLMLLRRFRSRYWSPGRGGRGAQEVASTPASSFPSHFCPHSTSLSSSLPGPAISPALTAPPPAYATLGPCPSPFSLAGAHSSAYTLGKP", "UniProt Q95165, whole entry": "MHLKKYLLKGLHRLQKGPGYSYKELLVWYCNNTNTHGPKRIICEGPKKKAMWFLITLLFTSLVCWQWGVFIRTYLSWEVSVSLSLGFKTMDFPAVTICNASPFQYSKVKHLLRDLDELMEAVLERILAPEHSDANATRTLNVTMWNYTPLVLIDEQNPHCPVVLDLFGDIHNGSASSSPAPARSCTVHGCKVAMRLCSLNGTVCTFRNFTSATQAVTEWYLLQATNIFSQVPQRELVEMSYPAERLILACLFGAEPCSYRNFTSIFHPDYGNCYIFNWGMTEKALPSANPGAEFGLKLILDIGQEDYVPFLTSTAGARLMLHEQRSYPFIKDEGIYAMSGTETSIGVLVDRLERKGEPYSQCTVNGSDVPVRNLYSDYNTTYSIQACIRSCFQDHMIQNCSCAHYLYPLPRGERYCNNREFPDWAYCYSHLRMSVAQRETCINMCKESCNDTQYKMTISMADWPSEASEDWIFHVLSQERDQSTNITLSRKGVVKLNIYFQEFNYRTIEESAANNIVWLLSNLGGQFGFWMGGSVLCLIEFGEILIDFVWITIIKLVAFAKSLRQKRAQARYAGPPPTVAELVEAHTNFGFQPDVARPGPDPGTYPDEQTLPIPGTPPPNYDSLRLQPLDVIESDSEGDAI"}, "source": "patent US8575176B2", "about": "“Heteroaromatic pyrazinoylguanidine sodium channel blockers” (Parion Sciences, Inc., priority 2008, dated 2013)", "biological_target": "epithelial sodium channels (ENaC) (Canis lupus familiaris, UniProt A0A8I3MKE6+A0A8I3Q679+Q95165)", "assay": "In vitro sodium channel blocking activity (short circuit current, Ussing chambers), dog airway cells", "format": "cell-based", "settings": "freshly excised cell from dog airways; tested form: 2 CH3SO3H", "note": "pIC50: −log10 of the molar value."}
{"smiles": "N=C(N)NCCCOc1ccc2cc(CCCCNC(=N)NC(=O)c3nc(Cl)c(N)nc3N)ccc2c1", "values": [{"measurement": "pIC50", "result": 8.02}]}
